“And” between values parts separate entries of the source, which are not always exact repeats. Equal entries are not always repeated. Only a part is listed here, and it is no random draw. Records with an inconclusive call do not appear. The source made the active and inactive calls. Calls follow the shape of the dose curve; as a rule, active = well fitted inhibition curve with a large enough effect; inconclusive = small, poorly fitted or top-dose-only effect, or effect the other way; inactive = flat fitted curve, though single readings scatter.
target: Cruzipain (Trypanosoma cruzi) (UniProt P25779); test: qHTS Assay for Promiscuous and Specific Inhibitors of Cruzain (without detergent); settings: purified cruzain, Z-FR-AMC fluorescence, no detergent;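 also: plate controls were enzyme without inhibitor for no effect and buffer without enzyme for full effect; nearly all actives have a fitted effect of over 40% in size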

Amino acid sequences for entries named in this document (tags omitted). Residues count along the entry.
UniProt P25779, 123-467 limits assumed: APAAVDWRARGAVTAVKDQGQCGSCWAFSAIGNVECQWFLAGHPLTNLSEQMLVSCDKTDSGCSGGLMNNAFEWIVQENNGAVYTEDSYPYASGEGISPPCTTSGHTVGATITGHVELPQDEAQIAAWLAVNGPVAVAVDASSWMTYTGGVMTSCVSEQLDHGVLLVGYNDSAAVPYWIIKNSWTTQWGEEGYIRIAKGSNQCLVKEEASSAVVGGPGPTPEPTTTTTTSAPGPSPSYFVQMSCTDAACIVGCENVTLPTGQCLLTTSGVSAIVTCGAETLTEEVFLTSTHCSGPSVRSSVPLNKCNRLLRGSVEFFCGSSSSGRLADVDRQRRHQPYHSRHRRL

Compound | max response, negative = inhibition
CN(CCCl)CCCl | inactive: -0.438% and inactive: 6.04%
O=[N+]([O-])C(Cl)(Cl)Cl | inactive: -2.44%

Reference: PubChem BioAssay AID1476 (National Center for Advancing Translational Sciences (NCATS), 2009)
